Laboratory results taken from ChEMBL document CHEMBL1152936, “Human sialidase inhibitors: design, synthesis, and biological evaluation of 4-acetamido-5-acylamido-2-fluoro benzoic acids” (Bioorg Med Chem, 2009).

Experiments:
[1] = biological target: T1, Sialidase-3 (Homo sapiens) (UniProt Q9UQ49); experiment: Inhibition of human NEU3 transiently transfected in HEK293 cells at 1 mM by fluorimetric analysis; format: cell-based
T1 sequence (whole entry): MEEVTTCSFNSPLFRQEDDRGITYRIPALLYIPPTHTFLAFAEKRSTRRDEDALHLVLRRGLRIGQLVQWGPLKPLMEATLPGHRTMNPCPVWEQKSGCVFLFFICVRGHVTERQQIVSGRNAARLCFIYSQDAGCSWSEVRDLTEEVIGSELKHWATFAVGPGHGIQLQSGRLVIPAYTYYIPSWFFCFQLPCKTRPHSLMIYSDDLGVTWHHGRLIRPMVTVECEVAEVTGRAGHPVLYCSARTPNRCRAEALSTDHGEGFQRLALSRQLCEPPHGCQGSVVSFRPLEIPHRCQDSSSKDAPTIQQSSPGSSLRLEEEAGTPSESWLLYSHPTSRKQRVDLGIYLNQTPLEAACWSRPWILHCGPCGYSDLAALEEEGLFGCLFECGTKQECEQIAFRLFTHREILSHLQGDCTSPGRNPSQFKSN
Method in brief: (§1)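 Enzyme source was the crude supernatant of homogenates from HEK-293 cells transiently transfected with a full-length human sialidase cDNA plasmid. The reaction contained 10–20 nmol substrate (4MU-Neu5Ac) as bound sialic acid, 0.2 mg BSA, sodium acetate pH 4.6 and 0.2 mg Triton X-100. It was incubated at 37 °C for 10–30 min, and released sialic acid was quantified. Inhibitors were tested at 1 mM and reported as percent inhibition.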

[2] = biological target: T2, Sialidase-4 (Homo sapiens) (UniProt Q8WWR8); experiment: Inhibition of human NEU4 transiently transfected in HEK293 cells at 1 mM by fluorimetric analysis; format: cell-based; method in brief: as §1
T2 sequence (whole entry): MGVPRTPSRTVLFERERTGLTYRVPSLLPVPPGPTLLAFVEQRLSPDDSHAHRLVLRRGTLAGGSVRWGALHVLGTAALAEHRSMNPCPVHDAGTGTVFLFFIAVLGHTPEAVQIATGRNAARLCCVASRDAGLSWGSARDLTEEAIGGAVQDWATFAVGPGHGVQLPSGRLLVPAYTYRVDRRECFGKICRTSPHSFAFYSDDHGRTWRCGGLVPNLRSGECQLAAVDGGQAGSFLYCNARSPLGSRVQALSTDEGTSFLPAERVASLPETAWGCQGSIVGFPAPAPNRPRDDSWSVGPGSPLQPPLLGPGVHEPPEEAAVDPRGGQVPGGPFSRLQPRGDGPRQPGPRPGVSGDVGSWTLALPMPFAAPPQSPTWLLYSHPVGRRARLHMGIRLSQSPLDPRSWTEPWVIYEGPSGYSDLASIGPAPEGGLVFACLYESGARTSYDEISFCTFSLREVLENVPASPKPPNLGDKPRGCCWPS

inhibition [1]: 8%
inhibition [2]: 10%
SMILES: CC(=O)Nc1cc(F)c(C(=O)O)cc1NC(=O)c1ccc(-c2ccccc2)cc1
